# Source: article PMC10308680 (Journal of Biomedical Science, 2023)
# The chains behind the UniProt entries cited, without tags or fusion partners. Residues count along the entry.
# UniProt P10747, 19-152 limits assumed: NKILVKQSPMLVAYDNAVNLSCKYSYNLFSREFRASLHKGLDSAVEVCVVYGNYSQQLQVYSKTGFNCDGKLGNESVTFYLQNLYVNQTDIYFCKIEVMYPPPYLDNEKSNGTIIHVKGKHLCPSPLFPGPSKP
# Molecular target: CD28-IgG-Fc (Homo sapiens, UniProt P10747)
# Assay: SPR: binding of CD28-IgG-Fc to immobilized peptide
# Conditions: read-out: KD (CD28-IgG-Fc to immobilized peptide); BIAcore 3000, CM5 chip, peptide with Cys at both termini (p2TA 700, pe12 1260 resonance units); 25 mM HEPES pH 7.4, 150 mM NaCl, 25 °C; analyte from 0.2 µM in twofold increments; 1:1 Langmuir; duplicate, representative
structure (smiles),measurement,value
C[C@@H](N)C(=O)N[C@@H](CO)C(=O)N[C@@H](Cc1c[nH]cn1)C(=O)N[C@@H](Cc1ccccc1)C(=O)N[C@H](C(=O)N[C@@H](Cc1c[nH]cn1)C(=O)N[C@@H](CC(N)=O)C(=O)N[C@@H](CCCNC(=N)N)C(=O)N[C@@H](Cc1c[nH]cn1)C(=O)NCC(=O)N[C@@H](Cc1c[nH]cn1)C(=O)N[C@@H](CO)C(=O)N[C@H](C(=O)N[C@H](C)C(=O)O)[C@@H](C)O)[C@@H](C)O,Kd,3 µM
